Results from publication PMC5175340, “eIF2β is critical for eIF5-mediated GDP-dissociation inhibitor activity and translational control” (Nucleic Acids Research, 2016).

Protein sequences, listed by entry. Tags and fused reporters are not part of them.
UniProt P09064, whole entry E189K: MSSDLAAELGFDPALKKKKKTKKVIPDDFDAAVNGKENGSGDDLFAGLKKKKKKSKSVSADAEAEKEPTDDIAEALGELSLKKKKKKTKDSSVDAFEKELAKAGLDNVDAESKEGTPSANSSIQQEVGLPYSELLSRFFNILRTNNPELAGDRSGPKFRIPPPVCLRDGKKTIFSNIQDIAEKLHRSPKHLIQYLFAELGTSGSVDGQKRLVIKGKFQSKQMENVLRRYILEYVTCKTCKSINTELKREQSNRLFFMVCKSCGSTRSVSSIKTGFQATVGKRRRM

Target: FLAG-eIF2β-E189K (sui3-E189K) (S. cerevisiae) (UniProt P09064)
Assay: co-IP; anti-FLAG immune precipitation of FLAG-eIF2β (WT or E189K) and associated proteins from yeast whole cell extracts; untagged control; quantitative IR western blotting (Li-Cor), at least three repeats

reduction in association relative to WT FLAG-eIF2β: 20%
Substance: eIF2B, P14741 1-305; P32502 1-381; P09032 1-578; P12754 1-651; P32501 1-712
